Laboratory results published in patent US20140243319A1, “TREATMENTS TARGETING GAMMA-SYNUCLEIN EXPRESSION LEVELS” (GEORGETOWN UNIVERSITY, priority 2011, published 2014).

Tested on: γ-Syn
Experiment: Western blot of γ-Syn protein in brain of WKY rats
Type: in vivo
Settings: WKY rat, chronic treatment for 2 weeks
Source text: In brain, γ-Syn is expressed in presynaptic terminals of monoaminergic neurons, and our lab has shown that this protein can regulate the function of norepinephrine and serotonin transporters. Unlike α-Syn, whose role in neurodegenerative diseases such as Parkinson's disease is well established, a role for γ-Syn in neurodegeneration is not known. γ-Syn is overexpressed in the frontal cortex of the WKY, a rat model of depression. […] The ability of γ-Syn to bind tightly to MTs may be one mechanism by which its overexpression in carcinomas protects cells from the MT actions of chemotherapeutic agents, for example, taxol, nocodazole, vinblastine and colchicine.

CNCCCN1c2ccccc2CCc2ccccc21 [DMI, desipramine]
γ-Syn levels in frontal cortex: decrease in γ-Syn levels
